Read-outs that look alike come from different tables or passages of the source.
System: rat stomach (gastric ulcers, gastric swelling)
Format: in vivo, rat (male Charles River, Sprague-Dawley)
Conditions: for Number of Animals With Gastric Ulcers: po
Experimental: The rats are divided into groups 6-10 and dosed by the oral route with test compound, on a mg/kg. body weight basis, or vehicle control, 0.5% carboxymethylcellulose, in a volume of 3 ml. per rat. Four hours after dosing, the rats are decapitated and exsanguinated. Stomachs are removed and examined for gastric swelling and then opened and washed for visual inspection of gastric ulcers. Only one lesion or gastric bleeding is necessary for a positive response. Data is reported quantally.

CC(=O)Oc1ccccc1C(=O)O [Aspirin, aspirin, reference compound]
effects on the gastric tract (in vivo): significant effects on the gastric tract | Number of Animals With Gastric Ulcers (in vivo, 60 mg/kg): 0/10 | Number of Animals With Gastric Ulcers (in vivo, 120 mg/kg): 0/10 | Number of Animals With Gastric Ulcers (in vivo, 240 mg/kg): 0/10 | Number of Animals With Gastric Ulcers (in vivo, 480 mg/kg): 0/10 | Number of Animals With Gastric Swelling (oral 120 mg/kg, 4 hours after dosing): 3/10 | blood present (number of animals) (oral 240 mg/kg, 4 hours after dosing): 3/10 | blood present (number of animals) (oral 480 mg/kg, 4 hours after dosing): 7/10

From patent publication US4267192A, “Method for treating inflammation” (priority 1980, dated 1981)
